Assay results published in BindingDB's records for doi:10.1016/j.ejmech.2017.02.004 (China Pharmaceutical University, 2017).

Assay: Substrate activity at NQO1 in human A549 cells assessed as NQO1-mediated two-electron reduction of compound by measuring cell growth inhibition treated for 24 hrs measured after 72 hrs by MTT assay

IC50: 3000 nM
Structure (SMILES): CC1(C)CCC2=C(O1)c1ccccc1C(=O)C2=O [R115 (Reactive Blue 2)]
